# OPERA 2.9 data: fraction unbound values

From the experimental data distributed with OPERA 2.9.

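These are experimental values that the OPERA curators gathered from public databases to train and test their QSAR models. One number stands for a compound and property, with no spread given. How each value was measured is not recorded, so precision varies. The measured form (salt, isomer or mixture) is not always the one drawn. Some upstream entries may be estimates or bounds without being marked so.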

fu is the fraction unbound in human plasma, from 0 to 1.
"–" marks a cell with nothing listed here.

- CC(CN1c2ccccc2Sc2ccccc21)N(C)C (stereo not drawn) [Promethazine]: fraction unbound 0.105
- Oc1ccc(Cc2ccccc2O)cc1: fraction unbound 0.0426
- Nc1nc2nc[nH]c2c(=S)[nH]1 [6-thioguanine]: fraction unbound 0.804
- O=C(O)c1ccc(O)cc1 [4-Hydroxybenzoic acid]: fraction unbound 0.6485
- CC#CCC(C)[C@H](O)/C=C/[C@@H]1[C@H]2C/C(=C/CCCC(=O)O)C[C@H]2C[C@H]1O (stereo partly specified) [Iloprost]: fraction unbound 0.4
- CN(CC1(C)CCCO1)S(=O)(=O)c1ccc(Cl)c(S(N)(=O)=O)c1 (stereo not drawn) [Mefruside]: fraction unbound 0.35
- OC(CNCC(O)C1CCc2cc(F)ccc2O1)C1CCc2cc(F)ccc2O1 (stereo not drawn) [Nebivolol]: fraction unbound 0.02
- O=C(Nc1nn[nH]n1)c1cc(Oc2ccccc2)c2ccccn2c1=O [Quinotolast]: fraction unbound 0.0191
- O=C1N(CC2CO2)C(=O)N(CC2CO2)C(=O)N1CC1CO1 (stereo not drawn): fraction unbound 0.402
- CCOC(=O)C1=C(C)NC(C)=C(C(=O)OCC)C1c1ccccc1/C=C/C(=O)OC(C)(C)C [Lacidipine]: fraction unbound 0.05
- O=C(NCCO[N+](=O)[O-])c1cccnc1 [Nicorandil]: fraction unbound 0.75
- c1cc(CN2CCCNCCNCCCNCC2)ccc1CN1CCCNCCNCCCNCC1 [Plerixafor]: fraction unbound 0.42
- CCOc1ccc2nc(S(N)(=O)=O)sc2c1 [Ethoxzolamide]: fraction unbound 0.11
- CC(C(=O)O)c1ccc2oc(-c3ccc(Cl)cc3)nc2c1 (stereo not drawn) [Benoxaprofen]: fraction unbound 0.004899
- Cc1onc(-c2ccccc2)c1C(=O)N[C@@H]1C(=O)N2[C@@H]1SC(C)(C)[C@@H]2C(=O)O [Oxacillin]: fraction unbound 0.07333
- CN(c1nccc(=O)[nH]1)C1CCN(c2nc3ccccc3n2Cc2ccc(F)cc2)CC1 [Mizolastine]: fraction unbound 0.02
- CC[C@@]1(O)C(=O)OCc2c1cc1n(c2=O)Cc2cc3c(N)cccc3nc2-1 [9-Aminocamptothecin]: fraction unbound 0.004
- O=c1[nH]c(=O)c2c[nH]nc2[nH]1 [Oxypurinol]: fraction unbound 0.995
- O=c1cc(O)c2c(=O)n(-c3ccccc3)c3ccccc3c2o1: fraction unbound 0.0183
- CCCCOc1ccc(N)cc1 [4-butyloxyaniline]: fraction unbound 0.165
- NC(=O)c1cnccn1 [Pyrazinamide]: fraction unbound 0.9
- O=C(CO)NCCCOc1cccc(CN2CCCCC2)c1 [Roxatidine]: fraction unbound 0.95
- CCCCNC(=N)NC(=N)N [Buformin]: fraction unbound 0.9
- CC(=O)N=c1sc(S(N)(=O)=O)nn1C [Methazolamide]: fraction unbound 0.45
- Nc1ccc(O)c(C(=O)O)c1 [5-Aminosalicylic acid]: fraction unbound 0.43
- CO[C@@H]1[C@@H](OC(N)=O)[C@@H](O)[C@H](Oc2ccc3c(O)c(NC(=O)c4ccc(O)c(CC=C(C)C)c4)c(=O)oc3c2C)OC1(C)C [Novobiocin]: fraction unbound 0.1
- CCOC(=O)C1=C[C@]2(CC)CCCN3CCc4c(n1c1ccccc41)[C@@H]32 [Vinpocetine]: fraction unbound 0.34
- CO[C@H]1C=CO[C@@]2(C)Oc3c(C)c(O)c4c(O)c(c(/C=N/N5CCN(C6CCCC6)CC5)c(O)c4c3C2=O)NC(=O)C(C)=CC=C[C@H](C)[C@H](O)[C@@H](C)[C@@H](O)[C@@H](C)[C@H](OC(C)=O)[C@@H]1C [Rifapentine]: fraction unbound 0.05367
- C[C@H]1C[C@H]2[C@@H]3CCC4=CC(=O)C=C[C@]4(C)[C@@]3(Cl)[C@@H](O)C[C@]2(C)[C@@]1(OC(=O)CC)C(=O)COC(=O)CC: fraction unbound 0.13
- Nc1ccc(S(=O)(=O)Nc2ccnn2-c2ccccc2)cc1 [Sulfaphenazole]: fraction unbound 0.01718
- CC[C@H](C)C[C@H](C)CCCCCCCCC(=O)N[C@H]1C[C@@H](O)[C@H](NCCN)NC(=O)[C@@H]2[C@@H](O)CCN2C(=O)[C@H]([C@H](O)CCN)NC(=O)C([C@H](O)[C@@H](O)c2ccc(O)cc2)NC(=O)[C@@H]2C[C@@H](O)CN2C(=O)C([C@@H](C)O)NC1=O (stereo partly specified) [Caspofungin]: fraction unbound 0.03583
- NC(=O)N1c2ccccc2CC(O)c2ccccc21 (stereo not drawn) [10-hydroxycarbazepine]: fraction unbound 0.3775
- c1ccc(C(O[C@@H]2CCCN(CCc3ccc4c(c3)OCO4)C2)c2ccccc2)cc1 [Zamifenacin]: fraction unbound 0.002114
- COC(=O)N[C@H](C(=O)N[C@@H](Cc1ccccc1)[C@@H](O)CN(Cc1ccc(-c2ccccn2)cc1)NC(=O)[C@@H](NC(=O)OC)C(C)(C)C)C(C)(C)C [Atazanavir]: fraction unbound 0.14
- C[C@H](NCCc1ccc(O)cc1)[C@H](O)c1ccc(O)cc1 [Ritodrine]: fraction unbound 0.655
- C1CCOC1 [Tetrahydrofuran]: fraction unbound 0.8251
- CCN[C@H]1C[C@H](C)S(=O)(=O)c2sc(S(N)(=O)=O)cc21 [Dorzolamide]: fraction unbound 0.7
- CN/C(/NCc1ccccc1)=NC: fraction unbound 0.9
- CC(C)CN(C[C@@H](OP(=O)(O)O)[C@H](Cc1ccccc1)NC(=O)O[C@H]1CCOC1)S(=O)(=O)c1ccc(N)cc1 [Fosamprenavir]: fraction unbound 0.1
- CC(=O)N(CC(O)CO)c1c(I)c(C(=O)NCC(O)CO)c(I)c(C(=O)NCC(O)CO)c1I (stereo not drawn): fraction unbound 0.9883
- Cc1ccc(O)cc1 [p-Cresol]: fraction unbound 0.3259
- O=C(O)Cn1c(=O)n(Cc2ccc(Br)cc2F)c(=O)c2ccc(Cl)cc21 [Zenarestat]: fraction unbound 0.0091
- CC1(C)Cc2cccc(O)c2O1 [2,3-dihydro-2,2-dimethyl-7-benzofuranol]: fraction unbound 0.364
- CC(C)(C)NC[C@H](O)COc1ccccc1C1CCCC1 [Penbutolol]: fraction unbound 0.05
- C[C@@](Cc1ccc(O)c(O)c1)(NN)C(=O)O [Carbidopa]: fraction unbound 0.64

Extract of 6 entries:

| SMILES | name | fraction unbound |
|---|---|---|
| CC(=O)N(CC(O)CO)c1c(I)c(C(=O)NCC(O)CO)c(I)c(C(=O)NCC(O)CO)c1I (stereo not drawn) | – | 0.9883 |
| O=C(O)Cn1c(=O)n(Cc2ccc(Br)cc2F)c(=O)c2ccc(Cl)cc21 | Zenarestat | 0.0091 |
| Nc1nc2nc[nH]c2c(=S)[nH]1 | 6-thioguanine | 0.804 |
| Cc1onc(-c2ccccc2)c1C(=O)N[C@@H]1C(=O)N2[C@@H]1SC(C)(C)[C@@H]2C(=O)O | Oxacillin | 0.07333 |
| CCOc1ccc2nc(S(N)(=O)=O)sc2c1 | Ethoxzolamide | 0.11 |
| CN(CC1(C)CCCO1)S(=O)(=O)c1ccc(Cl)c(S(N)(=O)=O)c1 (stereo not drawn) | Mefruside | 0.35 |